Reference: patent US9173884B2, “Inhibitors of phosphodiesterase 11 (PDE11)” (TRUSTEES OF BOSTON COLLEGE, priority 2011, dated 2015)
pIC50: −log10 of the molar value.

The chains behind the UniProt entries cited, without tags or fusion partners. Where a name states a change or a piece, a line headed by the entry shows the natural chain unless it says otherwise.
UniProt O60658: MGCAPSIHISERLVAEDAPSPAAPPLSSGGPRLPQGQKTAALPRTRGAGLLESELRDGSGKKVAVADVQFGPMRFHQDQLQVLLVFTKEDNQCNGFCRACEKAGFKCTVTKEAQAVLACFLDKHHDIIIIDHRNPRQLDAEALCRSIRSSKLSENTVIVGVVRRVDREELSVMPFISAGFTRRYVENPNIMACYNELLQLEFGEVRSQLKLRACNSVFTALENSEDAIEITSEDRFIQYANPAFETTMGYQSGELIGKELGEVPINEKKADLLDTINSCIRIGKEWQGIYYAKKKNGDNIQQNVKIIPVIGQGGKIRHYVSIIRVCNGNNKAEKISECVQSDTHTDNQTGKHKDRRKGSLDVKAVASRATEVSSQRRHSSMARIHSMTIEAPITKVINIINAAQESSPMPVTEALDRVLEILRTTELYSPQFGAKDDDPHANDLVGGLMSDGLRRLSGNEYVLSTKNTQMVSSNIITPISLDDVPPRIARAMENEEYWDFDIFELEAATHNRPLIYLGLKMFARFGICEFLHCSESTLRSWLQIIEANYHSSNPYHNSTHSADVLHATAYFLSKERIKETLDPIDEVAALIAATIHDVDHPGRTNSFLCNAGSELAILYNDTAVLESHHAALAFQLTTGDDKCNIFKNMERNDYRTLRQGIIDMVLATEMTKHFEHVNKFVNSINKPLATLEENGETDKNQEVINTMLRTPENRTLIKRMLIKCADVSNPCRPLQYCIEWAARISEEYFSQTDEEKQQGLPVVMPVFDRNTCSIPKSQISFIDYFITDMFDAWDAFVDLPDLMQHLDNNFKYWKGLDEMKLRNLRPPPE
UniProt Q13946: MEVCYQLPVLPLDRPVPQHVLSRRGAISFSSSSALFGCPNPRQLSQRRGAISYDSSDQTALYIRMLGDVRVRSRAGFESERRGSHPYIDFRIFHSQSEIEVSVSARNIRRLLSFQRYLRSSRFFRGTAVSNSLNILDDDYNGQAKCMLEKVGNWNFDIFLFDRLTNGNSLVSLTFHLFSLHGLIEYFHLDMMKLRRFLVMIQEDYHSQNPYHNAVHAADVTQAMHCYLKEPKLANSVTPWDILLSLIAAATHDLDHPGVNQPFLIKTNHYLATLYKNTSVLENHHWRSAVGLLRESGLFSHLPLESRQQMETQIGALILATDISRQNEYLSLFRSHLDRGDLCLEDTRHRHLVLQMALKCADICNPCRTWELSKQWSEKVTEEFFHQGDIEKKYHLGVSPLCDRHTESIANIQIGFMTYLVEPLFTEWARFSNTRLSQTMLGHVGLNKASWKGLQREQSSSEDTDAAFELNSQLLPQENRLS

Columns and labels:
Assay type in all cases: biochemical
PDE5A1 = PDE5A1 (Homo sapiens (Human), UniProt O76074); experiment: In vitro enzyme assay, PDE5; settings: PDE5A, 500 nM cGMP
PDE8A = PDE8A (Homo sapiens (Human), UniProt O60658); experiment: In vitro enzyme assay, PDE8; settings: 10 nM cAMP
PDE7A = PDE7A (Homo sapiens (Human), UniProt Q13946); experiment: In vitro enzyme assay, PDE7; settings: 15 nM cAMP

Structure (SMILES) | pIC50 (PDE5A1) | pIC50 (PDE8A) | pIC50 (PDE7A)
O=c1nc2sc3ccccc3n2c(=O)n1-c1ccccc1 [BC11-19] | < 4.00 | < 4.00 | 
Cc1ccccc1Nc1ncnc2c1c(-c1ccccc1)cn2-c1ccc(F)cc1 [BC11-28] |  |  | < 4.00
CCCSc1nc2c(c(=O)n1-c1ccccc1)SCC2 [BC11-38] | < 4.00 | < 4.00 | 
